Source: patent publication US20130178605A1

Molecular target: scFv(anti-HER2)-BT beta chain
Test: co-expression of three chains in HEK293-EBNA, protein-A purification, non-reducing SDS-PAGE scanning densitometry

Substance: VH(anti-EGFR)-CH1-BT alpha chain with VL(anti-EGFR)-CK chain
- hetero-dimerization rate: 49.5%
